Values quoted from earlier work as cited in patent US20080003250A1, “NOVEL THERAPY FOR HERPESVIRUS INFECTION” (priority 2006, published 2008).

Settings: oral, relative to ACV; cited from earlier work

Q: For ACV-valylchenodeoxycholate, which increase in bioavailability is on record?
A: two-fold
